Results from article PMC7012088 (Cancer Biology & Therapy, 2019).

Tests used:
[1] = Lapatinib brain and plasma exposure in Mdr1a/Mdr1b; assay type: in vivo, mouse; settings: Mdr1 knockout mice, lapatinib alone
[2] = mice lacking both murine-type ABCB1 and ABCG2; cited from earlier work

## CS(=O)(=O)CCNCc1ccc(-c2ccc3ncnc(Nc4ccc(OCc5cccc(F)c5)c(Cl)c4)c3c2)o1 [lapatinib, N-{3-chloro-4-[(3-fluorobenzyl)oxy]phenyl}-6-[5-({[2-(methylsulfonyl)ethyl]amino}methyl)-2-furyl]-4-quinazolinamine]
[1]
  lapatinib brain:plasma ratio (AUC0-24, brain/AUC0-24hr, plasma): 0.092
[2]
  increase of lapatinib brain-to-plasma ratio: 40 fold
